Test results published in patent US6362203B1, “4-hydroxy-4-phenylpiperidine derivatives and pharmaceuticals containing the same” (SSP Co., LTD, priority 1999, dated 2002).

Tested on: opioid receptor
Conditions: agonist activity relative to DAMGO (=1.0); guinea pig ileum longitudinal muscle sample
Method: Test 1: Action on the ileum sample excised from a guinea pig
A Hartley male guinea pig of about 500 g in weight was employed. From its ileocecum, 15 to 30 cm of the ileum was excised and a longitudinal muscle sample attached with the Auerbach's plexus was prepared. […] The agonist activity was indicated in terms of relative potency to DAMGO ([D-Ala^2, N-MePhe^4, Gly^5-ol]-enkephalin), a selective μ-opioid agonist.

For `CN1CC[C@]23c4c5ccc(O)c4O[C@H]2[C@@H](O)C=C[C@H]3[C@H]1C5` [Morphine], the Relative potency was 0.14.
